Results on one compound are retold here after patent US10864192B2, “Compositions and methods for inhibiting brain trauma-induced neurodegeneration and related conditions” (priority 2016, dated 2020).

By UniProt entry, the sequences of proteins in these tests, tags left out. Where a name states a change or a piece, a line headed by the entry shows the natural chain unless it says otherwise.
UniProt P22303: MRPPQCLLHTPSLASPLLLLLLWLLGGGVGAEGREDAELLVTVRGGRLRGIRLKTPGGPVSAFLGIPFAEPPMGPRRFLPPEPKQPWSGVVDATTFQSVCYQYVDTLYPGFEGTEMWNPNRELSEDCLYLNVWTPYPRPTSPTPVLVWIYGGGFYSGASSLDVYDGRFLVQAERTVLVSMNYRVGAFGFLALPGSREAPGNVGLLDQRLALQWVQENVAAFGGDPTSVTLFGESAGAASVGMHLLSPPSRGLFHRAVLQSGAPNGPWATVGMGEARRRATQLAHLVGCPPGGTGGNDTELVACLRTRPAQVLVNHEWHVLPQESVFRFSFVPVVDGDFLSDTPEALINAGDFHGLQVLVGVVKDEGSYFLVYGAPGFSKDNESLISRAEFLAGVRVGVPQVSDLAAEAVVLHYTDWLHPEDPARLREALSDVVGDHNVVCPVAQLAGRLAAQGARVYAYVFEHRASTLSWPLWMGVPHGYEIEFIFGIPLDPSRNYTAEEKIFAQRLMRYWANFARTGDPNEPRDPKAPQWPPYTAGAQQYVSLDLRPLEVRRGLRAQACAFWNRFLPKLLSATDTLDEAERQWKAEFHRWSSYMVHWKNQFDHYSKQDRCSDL

The conditions of data set [1]: 15 mg immediate release dose. The text has this: FIGS. 33-34 depict two graphs from an Excel spreadsheet. FIG. 33 is a linear plot of plasma level vs time and FIG. 34 is a semi-log plot of plasma conc. vs time.
Data set [2] is described as follows: Estimated EC50/IC50 of phenserine and metabolites for pharmacological activity in brain.
Data set [3] relates to Sprague-Dawley rats. Nature of the data set: Brain ischemia (MCA ligation), post-treatment. As to conditions: 1 mg/kg/day, day 1 to day 4 post-MCA occlusion; p=0.001 vs vehicle. The data set is classed as in vivo, rat.
Data set [4] has as its system mice. Nature of the data set: Novel object recognition after mTBI. In kind it is in vivo, mouse. The settings on record: 2.5 and 5.0 mg/kg BID×5 days post mTBI, tested 7 days after injury; p<0.01 both doses. How it is done: (§1) The same model of concussive head injury described above with respect to FIG. 7 was used in the experiments described below with respect to FIGS. 8 and 9. We evaluated the clinical-behavioral actions of phenserine in the aforementioned simulated mTBI mouse model following two doses (2.5 and 5.0 mg/kg, i.p., BID×5 days) initiated 30 min following injury. […] Previous studies of drug and metabolite concentrations have shown acetylcholinesterase inhibition to be present when any concentration of drug or metabolite have been detected. […] Drug and its metabolites have been shown undetectable when no anticholinesterase activities are present.
(§2) Behavioral evaluation of animals subjected to injury in the model was undertaken at 7 days and later after injury, in accord with previous time-dependent studies. The assessed behavior involved (i) recognition memory assessed by the classical novel object recognition paradigm (FIG. 8) and, (ii), spatial memory evaluated by the Y-maze paradigm (FIG. 9), which in prior studies we and others found impaired by the induced injury. […]
Amelioration of spatial and visual memory impairments in a close head, mouse model of mild TBI (mTBI) was assessed using Novel Object Recognition that was performed two days and later following cessation of clinically translatable dosing of phenserine (2.5 and 5.0 mg/kg BID×5 days initiated post mTBI). […]

Data set [5] relates to mice. Nature of the data set: Y-maze after mTBI. The data set is classed as in vivo, mouse. As to conditions: 2.5 and 5.0 mg/kg BID×5 days post mTBI, tested 7 days after injury; p<0.01 for 2.5, p<0.05 for 5 mg/kg. On the procedure:
as §1
as §2, with “injury. The former task refers to the ability to discriminate a previously encountered (familiar) item from a novel one; a task that has become a valuable tool in basic and preclinical research for investigating the neural basis of memory, and that has parallels to visual paired-comparison tasks in studies in humans and monkeys.” for “injury.”

In data set [6] the target is acetylcholinesterase (Homo sapiens (Human), UniProt P22303). Nature of the data set: Acetylcholinesterase activity assay of blood samples, illustrative treatment scenario (Example 14). In kind it is in vivo. The settings on record: one week after starting dosing; 10 mg immediate release then 5 mg/hr for 12 hr twice daily. From the text: For each of the forthcoming illustrative treatment scenarios provided in Examples 11-14, the extended, controlled-release composition could be combined with an anti-inflammatory drug.
A professional football player presents with a concern that they may be at risk during the upcoming practice and playing season from concussions. They report at least one concussion prior to their professional career while in college play and a second. Both resolved without obvious impairments. They state they are at risk of further concussions and sub-concussive injuries and requests whatever prevention or protection is possible. The doctor prescribes a single immediate release 10 mg phenserine tablet to be taken immediately followed by a daily dosing oral formulation (an extended, controlled-release pill prescribed to release 5 mg/hr for 12 hr) with instructions to take one pill every morning upon arising and every evening with a meal until the playing and practice seasons have ended. To ensure that an adequate brain concentration of drug is present the doctor orders an immediate, followed by one week after starting dosing, acetylcholinesterase activity assay of blood samples. […] Since this is within the active range of the drug the doctor advises the patient to continue the current dosing.

Structures are written as SMILES.

In the case of `CN1CC[C@@]2(C)c3cc(OC(=O)Nc4ccccc4)ccc3N(C)[C@@H]12` [phenserine, (−)-phenylcarbamoyleseroline], the “t1/2 /Elim” value in data set [1] fell in the range of 33 to 55.2 min. In data set [2], the “Estimated EC50” value is given as 24-26 NanoMolar. Further, in data set [2] (BNPCE IC50+/−25), the IC50 was 100 nM. The infarction area entry in data set [3] was “significantly reduced”. Also, in data set [4], the “visual memory deficit (novel object recognition preference index)” value was “significantly ameliorated”. Moreover, in data set [5], the “spatial memory deficit (Y maze preference index)” value was “significantly ameliorated”. In data set [6], the “blood acetylcholinesterase activity relative to pretreatment activity” value came out at 51%.
